Test results as given in patent US10112968B2, “Inhibitors of protein methyltransferase DOT1L and methods of use thereof” (Epizyme, Inc., priority 2012, dated 2018).

Chains of the proteins cited; added tags and fusions are not shown. Lines headed by an entry give the natural chain unless they say otherwise; changes in a name come on top.
UniProt Q8TEK3: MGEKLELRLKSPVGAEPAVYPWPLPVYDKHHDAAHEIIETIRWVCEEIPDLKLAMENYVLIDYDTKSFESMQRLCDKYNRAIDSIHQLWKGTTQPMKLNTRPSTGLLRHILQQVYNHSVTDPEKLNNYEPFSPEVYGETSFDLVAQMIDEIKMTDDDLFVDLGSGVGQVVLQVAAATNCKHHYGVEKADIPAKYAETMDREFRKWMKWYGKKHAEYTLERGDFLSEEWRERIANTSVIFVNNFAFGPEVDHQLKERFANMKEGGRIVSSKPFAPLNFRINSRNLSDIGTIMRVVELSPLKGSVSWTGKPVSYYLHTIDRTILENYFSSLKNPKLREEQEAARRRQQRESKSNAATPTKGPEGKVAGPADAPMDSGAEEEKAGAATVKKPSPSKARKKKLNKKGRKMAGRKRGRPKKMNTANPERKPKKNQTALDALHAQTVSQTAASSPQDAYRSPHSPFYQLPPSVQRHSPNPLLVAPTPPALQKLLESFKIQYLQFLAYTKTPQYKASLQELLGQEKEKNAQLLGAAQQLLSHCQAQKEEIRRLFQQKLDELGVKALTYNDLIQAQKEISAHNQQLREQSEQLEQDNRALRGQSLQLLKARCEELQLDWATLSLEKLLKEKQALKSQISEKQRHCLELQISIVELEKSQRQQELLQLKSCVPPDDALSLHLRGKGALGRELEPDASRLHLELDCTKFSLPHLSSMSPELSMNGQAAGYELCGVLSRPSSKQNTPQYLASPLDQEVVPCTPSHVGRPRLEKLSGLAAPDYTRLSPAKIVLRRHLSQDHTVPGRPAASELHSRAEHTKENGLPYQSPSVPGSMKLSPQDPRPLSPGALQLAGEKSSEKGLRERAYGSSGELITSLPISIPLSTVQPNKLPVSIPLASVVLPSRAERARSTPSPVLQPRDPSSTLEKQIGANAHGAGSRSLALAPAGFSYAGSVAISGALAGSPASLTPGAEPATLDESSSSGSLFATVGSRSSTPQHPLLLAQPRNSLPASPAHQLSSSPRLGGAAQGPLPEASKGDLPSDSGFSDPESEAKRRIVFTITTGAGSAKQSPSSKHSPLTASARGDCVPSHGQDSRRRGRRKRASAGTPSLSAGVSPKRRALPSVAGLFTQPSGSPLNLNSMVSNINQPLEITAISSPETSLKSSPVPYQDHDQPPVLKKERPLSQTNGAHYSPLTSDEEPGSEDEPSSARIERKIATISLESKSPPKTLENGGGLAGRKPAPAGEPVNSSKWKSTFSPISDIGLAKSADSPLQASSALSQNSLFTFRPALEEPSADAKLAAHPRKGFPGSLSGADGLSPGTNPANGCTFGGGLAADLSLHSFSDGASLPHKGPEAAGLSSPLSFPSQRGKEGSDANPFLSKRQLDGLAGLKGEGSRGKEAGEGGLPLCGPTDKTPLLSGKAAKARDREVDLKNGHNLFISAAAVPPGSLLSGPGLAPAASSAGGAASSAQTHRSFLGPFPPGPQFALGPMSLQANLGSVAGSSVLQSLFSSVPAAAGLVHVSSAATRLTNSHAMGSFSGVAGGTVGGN

Key:
[1] = target: T1, DOT1L (Homo sapiens (Human), UniProt Q8TEK3); assay: Ligand association and dissociation rate constants by surface plasmon resonance (SPR); assay type: binding; details: 25° C.
[2] = target: T1, DOT1L; assay: DOT1L enzymatic activity radiometric assay (methyl transfer from SAM to chicken erythrocyte nucleosomes); details: read-out: DOT1L IC50

Row | koff [1] [s⁻¹] | SMILES | IC50 [2] [nM]
1 | 0.2 ± 0.09 | CN(CCNC(=O)Nc1ccc(C(C)(C)C)cc1)C[C@H]1O[C@@H](n2cnc3c(N)ncnc32)[C@H](O)[C@@H]1O [Compound C94] | 
2 |  | CN(C[C@H]1C[C@@H](n2ccc3c(N)ncnc32)[C@H](O)[C@@H]1O)[C@H]1C[C@@H](CCc2nc3cc(C(C)(C)C)ccc3[nH]2)C1 [Compound A69, (1R,2S,3R,5R)-3-(4-amino-7H-pyrrolo[2,3-d]pyrimidin-7-yl)-5-((((1r,3S)-3-(2-(5-(tert-butyl)-1H-benzo[d]imidazol-2-yl)ethyl)cyclobutyl)(methyl)amino)methyl)cyclopentane-1,2-diol] | 2.51
